In the test the target is human IDO1 (Homo sapiens, UniProt P14902). Put plainly: IDO inhibition assay in HEK293 cells stably expressing human IDO1 (Example 252). The settings on record: read-out: HEK Human IDO-1 Potency, 20 hours incubation, kynurenine by Ehrlich reagent, absorbance at 490 nm.

Amino acid sequences for entries named in this document (tags omitted).
UniProt P14902, whole entry: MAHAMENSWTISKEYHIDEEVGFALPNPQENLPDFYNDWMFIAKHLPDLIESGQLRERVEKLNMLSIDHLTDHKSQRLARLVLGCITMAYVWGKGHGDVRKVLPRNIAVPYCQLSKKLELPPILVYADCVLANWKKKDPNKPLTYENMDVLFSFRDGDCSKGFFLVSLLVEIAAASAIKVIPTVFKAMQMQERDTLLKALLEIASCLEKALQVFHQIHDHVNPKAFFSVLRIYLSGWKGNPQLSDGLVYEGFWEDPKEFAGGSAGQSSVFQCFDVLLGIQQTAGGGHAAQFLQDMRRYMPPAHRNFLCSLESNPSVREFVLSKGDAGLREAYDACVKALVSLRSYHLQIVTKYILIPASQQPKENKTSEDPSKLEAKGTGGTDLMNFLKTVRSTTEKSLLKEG

Molecules are shown by their SMILES. Bounds are passed on as bounds.

`CC(C(=O)Nc1ccc(Cl)cc1)N1CCC(Oc2ccnc3ccc(F)cc23)CC1` (single isomer, unassigned) [103]: the IC50 is < 250 nM.

The record behind these values is patent US10533014B2, “Immunoregulatory agents” (Flexus Biosciences, Inc., priority 2014, dated 2020).
